Assay outcomes deposited in PubChem BioAssay by Broad Institute.
Yeast UUG start – yeast start codon fidelity modulation. S. cerevisiae UUG-firefly luciferase reporter, luminescence/redox ratio. activity score, % at 18.7 µM. 0.13% of 350,000 active;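 active = replicate mean at a twofold rise or more, about +100% in these data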;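 also: firefly luciferase made from a UUG start codon reports start codon fidelity; reporter light over untreated wells divided by growth signal over untreated wells; some hits fall short of that in this replicate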
FGF22 binding – FGF22 (human) thermal shift binding; Q9HCT0; recombinant FGF22 thermal shift, SYPRO orange fluorescence; percent of sucrose octasulfate shift, DMSO zero; activity (Tm shift, normalised), % at 9.99 µM; 1.5% of 340,000 active; AID 651658;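 active = mean Tm shift, scaled 0 neutral to 100 positive control, at about 1.3% or above, every replicate too, limit read from the data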
ARNT-TACC3 inh – disruptors of human ARNT/TACC3 interaction; Q9Y6A5; AlphaScreen His-ARNT PAS-B/GST-TACC3 binding, luminescence; TACC3 fragment carries E629A point mutation; inhibition, % at 9.99 µM; 0.66% of 390,000 active;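 active = mean inhibition of replicates at least 50% and at least half of replicates each reaching 50%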
PDI turbidity – blocks human protein disulfide isomerase activity; P07237; PDI insulin aggregation turbidity, A650, 90 min; inhibition, % at 10 µM; 0.052% of 350,000 active; AID 588391;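 active = mean inhibition across replicates of 30% or more, whatever share of single replicates reach that level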
ERp5 inh – inhibitors of human ERp5 | Q15084 | ERp5 insulin aggregation, absorbance 650 nm, 90 min | inhibition, % at 9.99 µM | 0.05% of 350,000 active | AID 651711;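 active = mean replicate inhibition above about 25%, with every replicate also reaching it, limit read from the data, passing the limit was not always enough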
PglD DTNB – inhibitors of Campylobacter jejuni PglD acetyltransferase; purified PglD enzyme, DTNB colorimetric CoA detection; 0.098% of 360,000 active; inhibition, % at 12.5 µM; AID 602405; in the data active = inhibition above about 16%, passing the limit was not always enough
Hits are given with their value; n = inactive; x = no result given. A selection: hits, their analogues and other compounds. The true share with any hit is near 1.9%.

SMILES	Yeast UUG start	FGF22 binding	ARNT-TACC3 inh	PDI turbidity	ERp5 inh	PglD DTNB
O=C1CCN(CCCN2CCC(=O)NC2=S)C(=S)N1	n	44	x	n	n	n
CCCCN1CCC(=O)NC1=O	n	n	n	n	n	n
Cc1noc(C)c1NC(=O)Nc1cccc2c1O[C@@H](CN(C)C(=O)NC1CCCCC1)[C@@H](C)CN([C@H](C)CO)C2=O	n	n	n	x	n	n
O=C(C[C@H]1C=C[C@H](NC(=O)CCN2CCCCC2)[C@@H](CO)O1)Nc1nccs1	n	n	n	x	n	n
C=CCN1C(=O)/C(=C2/Sc3ccc(OC)cc3N2C)SC1=Nc1ccccc1	x	43	n	n	n	x
C[C@H](CO)N1C[C@H](C)[C@H](CN(C)C(=O)c2cccc(F)c2)Oc2cc(C#CC3CC3)ccc2S1(=O)=O	x	n	n	x	n	n
COc1ccc2c3c(n(C)c2c1)[C@H](CO)N(C(C)=O)CC31CN(C(=O)C2CCOCC2)C1	x	n	x	x	n	x
COc1ccc(N2C(=O)C(CC(=O)Nc3ccccc3)N(CCc3ccc(OC)c(OC)c3)C2=O)cc1 (centres undefined)	x	44	n	n	n	x
O=C(c1ccccc1)N1CCCc2ccccc21	n	x	x	n	n	n
O=C1CCCCCN1C(=O)c1ccccc1	x	43	n	n	n	x
O=C(CNc1n[nH]c(=O)[nH]c1=O)N/N=C/c1ccccc1	x	n	x	x	n	x
O=C(Cc1n[nH]c(=O)[nH]c1=O)N/N=C/c1ccccc1O	n	x	n	n	n	n
O=C(CCNc1n[nH]c(=O)[nH]c1=O)N/N=C/c1ccc(C(F)(F)F)cc1	x	43	n	n	n	x
O=C(CCNc1n[nH]c(=O)[nH]c1=O)N/N=C/c1ccccc1Br	x	44	n	n	n	x
CCNC(=S)N(Cc1cccs1)Cc1cc2cc(OCC)ccc2[nH]c1=O	n	x	n	n	x	n
CN(C)CCN(Cc1cc2cc3c(cc2[nH]c1=O)OCO3)C(=S)NCc1ccco1	x	43	n	n	n	x
COc1ccc2cc(CN(CC3CCCO3)S(=O)(=O)c3ccccc3)c(=O)[nH]c2c1 (centres undefined)	n	x	n	n	x	n
CCNC(=S)N(CCN(C)C)Cc1cc2cc(OCC)ccc2[nH]c1=O	x	44	n	n	n	x
COc1ccc2cc(CN(CC3CCCO3)C(=S)NCc3ccco3)c(=O)[nH]c2c1 (centres undefined)	x	43	n	n	n	x
CCNC(=S)N(CCN(C)C)Cc1cc2cc3c(cc2[nH]c1=O)OCO3	n	n	n	n	n	n
COc1ccc2[nH]c(=O)c(CN(CC3CCCO3)S(=O)(=O)c3ccccc3)cc2c1 (centres undefined)	x	44	n	n	n	x
O=C(C[C@H]1C[C@H]2c3cc(NC(=O)c4cccnc4)ccc3O[C@H]2[C@H](CO)O1)NCC(F)(F)F	x	n	n	x	n	n
C[C@H](CO)N1C[C@H](C)[C@@H](CN(C)C(=O)Nc2ccccc2)Oc2c(NS(C)(=O)=O)cccc2C1=O	n	n	n	x	n	n
Cc1ccc2cc(CN(Cc3ccco3)C(=S)NCC3CCCO3)c(=O)[nH]c2c1 (centres undefined)	n	x	n	n	x	n
Cc1ccc(C)c2[nH]c(=O)c(CN(Cc3ccco3)C(=S)NCC3CCCO3)cc12 (centres undefined)	x	43	n	n	n	x
SMILES	Yeast UUG start	FGF22 binding	ARNT-TACC3 inh	PDI turbidity	ERp5 inh	PglD DTNB
COc1ccc2[nH]c(=O)c(CN(CC3CCCO3)C(=S)Nc3ccc(C)cc3)cc2c1 (centres undefined)	x	43	n	n	n	x
Cc1ccc(S(=O)(=O)Nc2ccc3c(c2)C(=O)N([C@@H](C)CO)C[C@H](C)[C@H](CN(C)Cc2ccncc2)OCCCC[C@@H](C)O3)cc1	n	n	n	x	n	n
COc1ccc2c3c([nH]c2c1)[C@H](CO)N(C(=O)CN(C)C)CC31CN(Cc2ccccc2Cl)C1	x	n	x	x	x	x
CCn1nnc(NC(=O)c2ccc([N+](=O)[O-])o2)n1	x	43	n	n	n	x
CCCCn1nnc(NC(=O)c2ccc(-c3ccccc3[N+](=O)[O-])o2)n1	n	n	n	n	n	n
COc1ccccc1N1CCN(C(=O)CCN2C(=O)c3cccc4cccc(c34)C2=O)CC1	x	45	n	n	n	x
COc1ccccc1N1CCN(C(=O)CN2C(=O)c3ccccc3C2=O)CC1	x	n	n	n	n	x
CSc1ncccc1C(=O)N1CCCC(C(=O)c2ccc3ccccc3c2)C1 (centres undefined)	n	43	n	n	n	n
COc1ccc(C(=O)C2CCCN(C(=O)c3cccnc3OC)C2)cc1F (centres undefined)	n	44	n	n	n	n
CC1(OC(=O)CCc2ccccc2)C(=O)C=C2C=C(c3ccc(C#N)cc3)N(Cc3ccccc3)C=C2C1=O (centres undefined)	n	n	n	n	n	n
COCCN1C=C2C(=O)C(C)(OC(=O)CCc3ccccc3)C(=O)C=C2C=C1c1ccc(C#N)cc1 (centres undefined)	n	n	active	n	n	n
O=C(Nc1ccc2c(c1)[C@H]1C[C@@H](CC(=O)N3CCOCC3)O[C@@H](CO)[C@H]1O2)NC1CCCC1	n	n	n	x	n	n
O=C(NNC(=S)Nc1ccccc1)C1CCCCC1	x	44	n	n	n	x
O=C(NC(=S)Nc1ccc(S(=O)(=O)Nc2ccccc2)cc1)C1CC1	x	43	n	n	n	x
O=C(NNC(=S)Nc1ccccc1)C1CC1	n	x	n	n	x	n
CN1C(=O)c2cc(NC(=O)C3CCCCC3)ccc2OC[C@H]2O[C@@H](CC(=O)NCc3ccccc3F)CC[C@@H]21	x	n	n	x	n	n
c1ccc2nc(SCc3cn4ccccc4n3)cnc2c1	n	43	n	n	n	n
CCCNC(=O)[C@H]1[C@H](CO)[C@H]2Cn3c(cccc3=O)[C@H]2N1CC1CC1	x	n	n	x	n	n
COc1ccc(S(=O)(=O)N(C)C[C@@H]2OCCCC[C@@H](C)Oc3ccc(NC(=O)C4CCCCC4)cc3C(=O)N([C@H](C)CO)C[C@H]2C)cc1	n	n	n	x	n	n
O=C(O)c1ccccc1OCCOc1ccccc1C(=O)O	n	x	50	n	x	n
CCOc1ccccc1NC(=O)c1cc(C(=O)c2cc(Br)ccc2O)coc1=N	x	45	x	n	n	x
COc1ccc2[nH]c(C)c(CCNC(=S)Nc3ccccc3OC)c2c1	x	43	n	n	n	x
CCOc1ccccc1OCC(=O)NCCc1ccc(S(N)(=O)=O)cc1	x	43	n	n	n	x
COc1ccc(NC(=S)NCCc2ccc(S(N)(=O)=O)cc2)c(OC)c1	x	n	n	n	n	x
COc1ccc2[nH]c(C)c(CCNC(=S)Nc3cc(C)ccc3C)c2c1	n	n	n	n	n	n
CN(CC(=O)NCCc1ccc(S(N)(=O)=O)cc1)c1ccccc1	x	43	n	n	n	x
COc1ccccc1NC(=S)NCCc1ccc(S(N)(=O)=O)cc1	n	46	n	n	n	n
